Results: patent publication US7635703B2, “Imidazole substituted pyrazole kinase inhibitors” (Janssen Pharmaceutica N.V., priority 2006, dated 2009)

Chains of the proteins cited; added tags and fusions are not shown. Residues count along the entry.
UniProt P04626, 679-1255: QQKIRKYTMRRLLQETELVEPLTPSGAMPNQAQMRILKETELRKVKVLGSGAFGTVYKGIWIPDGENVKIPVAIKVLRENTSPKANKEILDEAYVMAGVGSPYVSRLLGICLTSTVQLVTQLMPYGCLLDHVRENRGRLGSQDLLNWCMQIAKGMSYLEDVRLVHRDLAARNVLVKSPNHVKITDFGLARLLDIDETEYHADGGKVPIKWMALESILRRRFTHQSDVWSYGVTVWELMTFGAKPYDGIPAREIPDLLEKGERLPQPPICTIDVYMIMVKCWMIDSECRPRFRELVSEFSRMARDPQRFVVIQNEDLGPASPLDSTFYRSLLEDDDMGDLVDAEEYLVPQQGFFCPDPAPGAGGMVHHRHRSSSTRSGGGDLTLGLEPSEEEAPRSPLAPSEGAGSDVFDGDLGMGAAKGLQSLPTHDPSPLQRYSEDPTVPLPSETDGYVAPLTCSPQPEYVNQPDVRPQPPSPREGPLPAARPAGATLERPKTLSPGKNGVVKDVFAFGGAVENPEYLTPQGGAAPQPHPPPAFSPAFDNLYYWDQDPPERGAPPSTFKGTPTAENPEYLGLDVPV

Molecular target: T1, HER2 (GST/HIS6 fusion, amino acids 679 to 1255 of HER-2) (Homo sapiens, UniProt P04626)
T1 construct: GST (Glutathione-S-Transferase) (N); HIS6 (N); thrombin cleavage site (N); purchased Proqinase, Freiburg, Germany
Test: HER2 screening assay (33P-ATP FlashPlate)
Type: biochemical
Conditions: 10 μM ATP, 1 hr at 30° C.
Procedure: A kinase reaction mixture was prepared containing 50 mM Tris-HCl pH=8, 10 mM MgCl2, 0.1 mM […], 1 mM DTT, 10 μM ATP, 0.025 μM biotinylated histone-H1 peptide substrate and 0.2 μCuries per well ^33P-γ-ATP (2000-3000 Ci/mmol). 70 μL of the kinase reaction mixture was dispensed into the well of a streptavidin coated FlashPlate™ (Cat. # SMP103, NEN, Boston, Mass.).
Test compound stock in 100% DMSO (1 μL) was added to the wells resulting in a final concentration of 1% DMSO in the reaction with a 100 μL final reaction volume. Each enzyme was diluted in 50 mM Tris-HCl pH=8.0, 0.1% BSA and 30 μL was added to each well to initiate the reaction. The reaction was incubated for one hour at 30° C. At the end of the 1 hr incubation, the reaction was terminated by aspirating the mixture from the plate and washing the wells twice with PBS containing 100 mM EDTA. The biotinylated peptide substrate became immobilized on the Flashplate™ and the incorporation of ^33P-γ-ATP was measured by reading the plate on a scintillation counter. Inhibition of the enzymatic activity was measured by observing a reduced amount of ^33P-γ-ATP incorporated into the immobilized peptide. […]
A maximum and minimum signal for the assay was determined on each plate. The percent inhibition of a test compound was calculated according to the formula: […]

IC50: 32.7 µM
SMILES: FC(F)(F)c1c[nH]c(-c2n[nH]cc2C=Cc2cncc3ccccc23)n1 [Cpd 4, 4-{2-[3-(4-trifluoromethyl-1H-imidazol-2-yl)-1H-pyrazol-4-yl]-vinyl}-isoquinoline]
